{
  "sequences": {"note": "Protein sequences, listed by entry. Tags and fused reporters are not part of them.", "UniProt Q09472, whole entry": "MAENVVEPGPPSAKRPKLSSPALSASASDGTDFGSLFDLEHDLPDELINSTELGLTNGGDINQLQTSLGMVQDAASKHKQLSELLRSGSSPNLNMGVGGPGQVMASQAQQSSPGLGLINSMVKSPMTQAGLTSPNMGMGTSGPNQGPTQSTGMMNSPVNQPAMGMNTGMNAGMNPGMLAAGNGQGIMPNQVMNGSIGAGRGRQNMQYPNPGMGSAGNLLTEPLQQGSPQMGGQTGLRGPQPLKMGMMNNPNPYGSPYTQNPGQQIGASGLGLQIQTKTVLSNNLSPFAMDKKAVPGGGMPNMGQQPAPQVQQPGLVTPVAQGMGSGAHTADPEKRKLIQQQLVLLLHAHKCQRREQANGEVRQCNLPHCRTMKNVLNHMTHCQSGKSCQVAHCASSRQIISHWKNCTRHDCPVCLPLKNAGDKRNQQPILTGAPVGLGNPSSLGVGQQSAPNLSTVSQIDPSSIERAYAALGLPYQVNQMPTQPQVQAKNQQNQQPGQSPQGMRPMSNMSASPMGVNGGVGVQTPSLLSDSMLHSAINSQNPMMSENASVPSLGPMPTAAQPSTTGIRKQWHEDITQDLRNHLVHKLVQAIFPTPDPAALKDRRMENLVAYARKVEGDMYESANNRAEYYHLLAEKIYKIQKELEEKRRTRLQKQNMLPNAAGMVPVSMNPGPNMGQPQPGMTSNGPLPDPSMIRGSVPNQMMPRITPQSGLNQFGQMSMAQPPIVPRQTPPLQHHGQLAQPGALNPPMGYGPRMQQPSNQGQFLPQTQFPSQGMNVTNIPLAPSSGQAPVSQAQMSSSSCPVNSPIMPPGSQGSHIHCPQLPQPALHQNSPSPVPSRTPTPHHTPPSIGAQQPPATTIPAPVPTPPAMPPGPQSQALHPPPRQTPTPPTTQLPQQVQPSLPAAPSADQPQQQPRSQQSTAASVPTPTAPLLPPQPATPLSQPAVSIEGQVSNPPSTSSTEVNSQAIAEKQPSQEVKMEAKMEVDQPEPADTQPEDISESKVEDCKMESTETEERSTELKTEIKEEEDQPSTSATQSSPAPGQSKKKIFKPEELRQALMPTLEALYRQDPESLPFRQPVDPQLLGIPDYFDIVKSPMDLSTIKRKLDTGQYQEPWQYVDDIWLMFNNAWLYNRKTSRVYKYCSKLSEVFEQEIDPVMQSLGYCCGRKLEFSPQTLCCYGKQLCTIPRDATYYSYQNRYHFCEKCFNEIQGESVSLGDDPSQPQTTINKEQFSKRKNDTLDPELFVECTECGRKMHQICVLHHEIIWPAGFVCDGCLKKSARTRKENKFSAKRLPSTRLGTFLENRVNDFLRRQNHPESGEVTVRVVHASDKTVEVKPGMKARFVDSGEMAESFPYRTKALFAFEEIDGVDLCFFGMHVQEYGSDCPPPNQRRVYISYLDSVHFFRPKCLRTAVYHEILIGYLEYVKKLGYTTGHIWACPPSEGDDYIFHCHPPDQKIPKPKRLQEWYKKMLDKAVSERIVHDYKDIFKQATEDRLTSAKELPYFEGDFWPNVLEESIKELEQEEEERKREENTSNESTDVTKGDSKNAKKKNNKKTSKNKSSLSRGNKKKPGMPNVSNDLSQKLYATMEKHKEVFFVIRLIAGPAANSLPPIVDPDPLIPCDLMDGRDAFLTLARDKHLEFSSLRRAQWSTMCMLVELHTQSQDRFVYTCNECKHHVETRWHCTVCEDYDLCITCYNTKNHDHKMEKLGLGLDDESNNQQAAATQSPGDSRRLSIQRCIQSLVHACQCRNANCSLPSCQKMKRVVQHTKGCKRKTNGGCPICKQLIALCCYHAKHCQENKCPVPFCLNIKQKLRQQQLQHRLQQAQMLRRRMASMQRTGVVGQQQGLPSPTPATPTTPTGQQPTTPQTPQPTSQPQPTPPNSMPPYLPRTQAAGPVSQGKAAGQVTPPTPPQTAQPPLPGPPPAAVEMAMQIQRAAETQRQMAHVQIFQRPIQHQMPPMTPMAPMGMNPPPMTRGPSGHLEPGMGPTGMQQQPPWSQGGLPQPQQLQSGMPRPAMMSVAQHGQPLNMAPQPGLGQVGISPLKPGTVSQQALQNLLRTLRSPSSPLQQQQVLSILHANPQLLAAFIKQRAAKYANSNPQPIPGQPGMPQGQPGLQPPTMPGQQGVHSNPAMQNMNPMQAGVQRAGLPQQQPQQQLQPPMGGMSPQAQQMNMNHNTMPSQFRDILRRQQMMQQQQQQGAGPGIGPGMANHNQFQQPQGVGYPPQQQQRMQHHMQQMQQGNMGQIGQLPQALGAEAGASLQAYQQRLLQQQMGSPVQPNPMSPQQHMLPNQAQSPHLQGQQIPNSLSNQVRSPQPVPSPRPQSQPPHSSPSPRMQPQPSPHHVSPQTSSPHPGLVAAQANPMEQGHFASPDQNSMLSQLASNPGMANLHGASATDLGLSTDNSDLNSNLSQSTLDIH"},
  "source": "ChEMBL document CHEMBL5120858",
  "about": "“Structure-activity relationship and antitumor activity of 1,4-pyrazine-containing inhibitors of histone acetyltransferases P300/CBP” (Eur J Med Chem, 2022)",
  "key": {"[1]": {"target": "T1, Histone acetyltransferase p300 (Homo sapiens, UniProt Q09472)", "experiment": "Non-competitive inhibition of human p300 HAT domain (1195 to 1673 residues) using acetyl-coA as substrate preincubated for 10 mins followed by varying concentrations of substrate addition and measured after 30 mins by Cheng-Prusoff plot analysis", "details": "time 40.0 min"}, "[2]": {"target": "T1, Histone acetyltransferase p300", "experiment": "Competitive inhibition of human p300 HAT domain (1195 to 1673 residues) using histone H3 peptide as substrate preincubated for 10 mins followed by varying concentrations of substrate addition and measured after 30 mins by Cheng-Prusoff plot analysis", "details": "time 40.0 min"}},
  "note": "The source made the active and inactive calls. The calls are words filed in the database; no cut-off is given here.",
  "data": [
    {"molecule": "c1cc(-c2ccc(-c3ncc(OCC4CCNCC4)nc3-c3ccc(-c4ccoc4)cc3)cc2)co1", "values": [
      {"measurement": "inhibition", "setting": "[1]", "result": "Active"},
      {"measurement": "inhibition", "setting": "[2]", "result": "Active"}
    ]}
  ]
}
